The structures appear in SMILES notation. Some of the results follow.

The source of these data is published antibiotic growth screens (doi:10.1038/s41589-023-01349-8).

The subject of this assay is A. baumannii ATCC 17978. The assay can be described thus: relative growth (fraction of control); higher = less inhibition. Conditions: 50 µM.
Compound `COc1ccccc1N1C(N)=NC(N)=NC1(C)C` registered a relative growth of 0.91.

On to `NC[C@@H]1O[C@H](O[C@@H]2[C@@H](CO)OC(O[C@@H]3[C@@H](O)[C@H](N)C[C@H](N)[C@H]3O[C@H]3O[C@H](CO)[C@@H](O)[C@H](O)[C@H]3N)[C@@H]2O)[C@H](N)[C@@H](O)[C@@H]1O.O=S(=O)(O)O` (stereo partly drawn), for which the relative growth amounted to 0.153.

`C=CCN1C(=O)[C@@]2(O[C@@H](CCO)[C@H]([Si](C)(C)c3ccc(OC)cc3)[C@H]2C)c2cc(N3C(=O)c4cccc5cccc3c45)ccc21`: the relative growth turned out to be 1.22.

For the compound `CCN(CC)C(C)CN1c2ccccc2Sc2ccccc21.Cl` (stereo not drawn), the relative growth stood at 0.962.

Consider `CC1=C(C(=O)O)N2C(=O)[C@@H](NC(=O)C(N)c3ccccc3)[C@H]2SC1` (stereo partly drawn), for which the relative growth turned out to be 0.894.

With `CNc1ccccc1C(=O)N1CCc2c([nH]c3ccccc23)C1=O`, the relative growth turned out to be 1.01.

Regarding `NCCCC(N)C(=O)O.NCCCC(N)C(=O)O.O=C(O)CCC(=O)C(=O)O`, the relative growth is 1.11.

Consider `CN1CCN(C(=O)c2ccc(N)cc2)CC1`, for which the relative growth came out at 1.1.

The compound `CC(=O)OC1O[C@@H](c2ccoc2)[C@]2(C)CCC3[C@]4(C)C(C[C@H](OC(C)=O)C[C@@H]4OC(C)=O)C[C@H](OC(C)=O)[C@@]3(C)C23OC13` (stereo partly drawn) gave a relative growth of 0.926.

Consider `COc1cccc(S(=O)(=O)N(C)C[C@H]2Oc3cc(C#CCC(C)C)ccc3S(=O)(=O)N([C@@H](C)CO)C[C@@H]2C)c1`, for which the relative growth was determined as 1.21.

`COc1cccc2ccc(Cl)nc12` registered a relative growth of 0.932.

Turning to `COC(=O)c1ccccc1S(=O)(=O)NC(=O)Nc1nc(C)c2c(n1)CCS(=O)(=O)C2`, the relative growth is 1.13.

In the case of `COc1ccccc1OCC(O)COC(N)=O` (stereo not drawn), the relative growth was 0.979.

The compound `COc1cccc(CNC(=O)C[C@H]2C=C[C@@H](NC(=O)C3CCOCC3)[C@H](CO)O2)c1` gave a relative growth of 1.11.

In the case of `CC(=O)O[C@H]1CC[C@@]2(C)C(CC[C@]3(C)C2CC=C2C4CC(C)(C)CC[C@]4(C)CC[C@]23C)C1(C)C` (stereo partly drawn) [beta-AMYRIN ACETATE], the relative growth came to 1.15.

Compound `CC(C)(C)C(=O)C[C@@H](Nc1ccccc1)c1ccc(Cl)cc1` had a relative growth of 1.1.

`O=C(NO)c1cn(-c2cccc(C(=O)N3CCC4(CC3)C(=O)NCN4c3ccccc3)c2)nn1`: the relative growth is 0.131.

`O=C(Cc1ccncc1)NCC[C@@H]1CC[C@H](NC(=O)C2CCOCC2)[C@@H](CO)O1` yielded a relative growth of 1.05.

The compound `Cc1ccc(-c2ccc3c(c2)O[C@@H](CN(C)C(=O)CN(C)C)[C@@H](C)CN([C@H](C)CO)S3(=O)=O)cc1` showed a relative growth of 0.919.

On to `CCOc1nc2cccc(C(=O)OCc3oc(=O)oc3C)c2n1Cc1ccc(-c2ccccc2-c2noc([O-])n2)cc1.[K+]`, for which the relative growth stood at 1.1.

Take `C[C@H](CO)N1C[C@H](C)[C@@H](CN(C)C(=O)c2cnccn2)Oc2cc(C#CCC3CCCC3)ccc2S1(=O)=O`: the relative growth amounted to 0.807.

For the compound `C=C1[C@@H]2[C@H]3OC(=O)[C@@H](C)[C@@H]3[C@@H](O[C@@H]3O[C@H](CO)[C@@H](O)[C@H](O)[C@H]3O)CC(=C)[C@@H]2C[C@@H]1O`, the relative growth stood at 1.06.

In turn, `CCCSc1ccc2nc(NC(=O)OC)[nH]c2c1` gave a relative growth of 1.41.

In turn, `CC(c1nc(=O)[nH][nH]1)N1CCOC(O[C@H](C)c2cc(C(F)(F)F)cc(C(F)(F)F)c2)C1c1ccc(F)cc1` (stereo partly drawn) came in with a relative growth of 0.716.

`CC(=O)Nc1cc2c(cc1N)OCCO2` had a relative growth of 0.998.

`COc1ccccc1S(=O)(=O)N[C@H]1CC[C@@H](CCNC(=O)C2CC2)O[C@H]1CO` came in with a relative growth of 0.975.

On to `CC(=O)NCCCC[C@@H]1NC(=O)[C@@H]2C[C@H](C(=O)NCCCCCCN)[C@H](c3cccc(OCCO)c3)N2C1=O`, for which the relative growth was determined as 1.08.

`C=C(C)c1c2c(c(Cl)c3ccccc13)C[N+](CC)(CC)C2` gave a relative growth of 0.994.

Regarding `O=C(C[C@H]1CC[C@H]2[C@@H](COC[C@H](O)CN2C(=O)c2ccccc2F)O1)N1CCN(c2ccccc2)CC1`, the relative growth was 1.

Consider `CN(C/C=C/c1ccccc1)Cc1cccc2ccccc12.Cl`, for which the relative growth was 0.919.

On to `Cn1c(=O)c2c(ncn2CC(=O)N2CCN(C(=O)c3ccco3)CC2)n(C)c1=O`, for which the relative growth worked out at 1.08.

`CC(C)C#Cc1ccc2c(c1)O[C@H](CN(C)C(=O)c1cccc(F)c1)[C@H](C)CN([C@H](C)CO)S2(=O)=O` registered a relative growth of 0.942.

In turn, `O=S(=O)(NCC[C@@H]1CC[C@H](NS(=O)(=O)c2cccc(Cl)c2)[C@H](CO)O1)c1cccc(F)c1` registered a relative growth of 0.984.

In the case of `Cl.NCCc1ccc(O)c(O)c1`, the relative growth was 1.09.

`CN(C)CCOc1ccc(C#N)cn1` gave a relative growth of 1.04.

In turn, `NNC(=S)NCc1ccc(F)cc1` had a relative growth of 1.06.

The compound `C[C@H](CCC(=O)O)[C@H]1CCC2C3C(CC[C@@]21C)[C@@]1(C)CC[C@@H](O)C[C@H]1C[C@@H]3O` (stereo partly drawn) yielded a relative growth of 0.958.

Compound `Cc1ccc(N(CC2=NCCN2)c2cccc(O)c2)cc1.Cl` gave a relative growth of 0.968.

`CS(=O)(=O)[O-].C[n+]1ccccc1/C=N/O` gave a relative growth of 0.964.

The compound `O=C1C[C@@](C(=O)NCc2ccccc2)(c2ccc([N+](=O)[O-])cc2)[C@@H](c2ccc(CO)cc2)N1CC12CC3CC(CC(C3)C1)C2` came in with a relative growth of 0.92.

The compound `CN(C)c1nc(SCC(N)=O)nc(N(C)C)n1` returned a relative growth of 0.916.

`O=C1C[C@]2(c3ccc([N+](=O)[O-])cc3)C(=O)N(C3CC3)c3cc(CO)ccc3[C@H]2N1CC12CC3CC(CC(C3)C1)C2` gave a relative growth of 0.998.

`COc1ccc2c(c1)[C@@H](NCC=C(C)C)[C@H](C)[C@H]2c1ccccc1` came in with a relative growth of 0.929.

Regarding `COc1cc(O)ccc1C(C)=O`, the relative growth was 0.934.

Compound `COCCOC(=O)N1C(=O)[C@@]2(c3ccccc31)[C@H](C(=O)Nc1nc3ccccc3s1)[C@H]1C(=O)O[C@H](c3ccccc3)[C@H](c3ccccc3)N1[C@@H]2c1ccccc1OCCO` came in with a relative growth of 1.02.

`O=C(O)c1ccc(N2CCCS2(=O)=O)cc1` displayed a relative growth of 1.09.

With `CC(C)(O)CC[C@@H](O)[C@](C)(O)C1CC[C@@]2(O)C3=CC(=O)C4C[C@@H](O)[C@@H](O)C[C@]4(C)C3CC[C@]12C` (stereo partly drawn), the relative growth turned out to be 0.934.

Regarding `C[N+](C)(C)CCCCCCNC(=O)[C@@H]1C[C@@H]2C(=O)N[C@@H](CCCC[N+](C)(C)C)C(=O)N2[C@@H]1c1ccc(O)cc1`, the relative growth was 1.1.

As for `CSc1[nH]c(=O)[nH]c(=O)c1C#N`, the relative growth came to 0.938.

Regarding `COc1ccc(NC(=O)O[C@H]2[C@H](OC(=O)Nc3ccccc3-c3ccccc3)[C@H](OC(=O)Nc3ccccc3-c3ccccc3)[C@@H](OC)O[C@@H]2COC(=O)NCCCCCC(=O)NO)cc1`, the relative growth came out at 0.973.

On to `Cn1cnc(S(=O)(=O)N[C@H]2CC[C@@H](CC(=O)N3CCN(c4ccccc4)CC3)O[C@H]2CO)c1`, for which the relative growth amounted to 1.07.

As for `C=CCc1ccccc1OCC(O)CNC(C)C.Cl` (stereo not drawn), the relative growth was 0.776.

In turn, `C=CCN([C@@H](Cc1ccccc1)[C@@H](O)c1cn(CCCCCCNC(=O)C(=O)NC)nn1)S(=O)(=O)c1ccccc1[N+](=O)[O-]` registered a relative growth of 0.943.

Turning to `CCCCCCCCCCCCCCCC(=O)OC[C@H](NC(=O)C(Cl)Cl)[C@H](O)c1ccc([N+](=O)[O-])cc1`, the relative growth is 1.01.

As for `C[C@H]1CCc2[nH]c3ccccc3c2C1`, the relative growth was determined as 0.917.

Turning to `Cn1c(=O)[nH]c2nc[nH]c2c1=O`, the relative growth was found to be 1.04.

In turn, `O=C(/C=C/c1ccc(O)c(O)c1)O[C@@H]1C[C@](O)(C(=O)O)C[C@@H](O)[C@H]1O` registered a relative growth of 0.925.

`CS(=O)(=O)O.C[C@H]1COc2c(C3(N)CC3)c(F)cc3c(=O)c(C(=O)O)cn1c23` displayed a relative growth of 0.151.

Take `COc1cccc(C#Cc2cnc3c(c2)C(=O)N([C@H](C)CO)C[C@H](C)[C@@H](CN(C)C(=O)C2CCOCC2)O3)c1`: the relative growth was found to be 0.813.

On to `CC(C)N1C(=O)[C@@]2(Cc3ccccc31)c1ccccc1C(=O)N(Cc1ccccc1Cl)[C@H]2c1ccc(CO)cc1`, for which the relative growth came to 0.905.

As for `C=C1CC(=O)C2=C(C)C[C@H](O[C@@H]3O[C@H](CO)[C@@H](O)[C@H](O)[C@H]3O)[C@H]3C(=C)C(=O)O[C@@H]3[C@@H]12`, the relative growth was determined as 1.01.

`NC(Cc1cc(I)c(O)c(I)c1)C(=O)O.O.O` (stereo not drawn) had a relative growth of 1.2.

Take `C=CCOC(=O)[C@H]1[C@@H]2C(=O)O[C@@H](c3ccccc3)[C@@H](c3ccccc3)N2[C@@H](c2ccc(OCCOC(=O)[C@H]3C[C@H]4C(=O)N[C@@H](CCCC[N+](C)(C)C)C(=O)N4[C@H]3c3cccc(OCCO)c3)cc2)[C@]12C(=O)Nc1ccc(I)cc12`: the relative growth was found to be 1.14.

As to `C[C@H](O)C#Cc1ccc2c(c1)O[C@@H](CN(C)C(=O)Cc1ccccn1)[C@H](C)CN([C@@H](C)CO)S2(=O)=O`, the relative growth stood at 0.974.

`O=C(C[C@H]1CC[C@@H]2[C@H](COC[C@@H](O)CN2S(=O)(=O)c2ccccc2F)O1)NCc1ccccc1F` came in with a relative growth of 1.07.

In turn, `C[C@H](CO)N1C[C@H](C)[C@H](CN(C)C(=O)Cc2ccccc2)Oc2cc(-c3cncnc3)ccc2S1(=O)=O` returned a relative growth of 0.827.

For `O=C(C[C@H]1C[C@H]2c3cc(NC(=O)Cc4ccncc4)ccc3O[C@H]2[C@H](CO)O1)NCCN1CCCCC1`, the relative growth is 0.911.

As to `CNC(C)[C@@H]1CC[C@@H](N)[C@@H](OC2[C@@H](N)C[C@@H](N)[C@H](OC3OC[C@](C)(O)[C@H](NC)[C@H]3O)[C@H]2O)O1.O=S(=O)(O)O` (stereo partly drawn), the relative growth turned out to be 0.605.

For the compound `CC(C)COCC(CN(Cc1ccccc1)c1ccccc1)N1CCCC1.Cl` (stereo not drawn), the relative growth is 1.13.

Turning to `C[C@H](CO)N1C[C@H](C)[C@@H](CN(C)S(=O)(=O)c2ccccc2F)Oc2cc(-c3ccncc3)ccc2S1(=O)=O`, the relative growth was 0.876.

In turn, `C#C[C@]1(OC(C)=O)CCC2C3CCC4=C/C(=N/O)CCC4C3CC[C@@]21CC` (stereo partly drawn) displayed a relative growth of 1.29.

In turn, `C[C@]1(Cn2ccnn2)[C@H](C(=O)O)N2C(=O)C[C@H]2S1(=O)=O` displayed a relative growth of 0.144.

In turn, `O=C(C[C@@H]1C=C[C@H](NC(=O)Nc2cc(F)ccc2F)[C@@H](CO)O1)NCCCN1CCOCC1` showed a relative growth of 1.15.

`CO[C@H]1CN(C)C(=O)c2cc(NS(=O)(=O)c3ccccc3)ccc2OC[C@@H](C)N(C(=O)NC(C)C)C[C@H]1C` registered a relative growth of 0.887.

The compound `CN(CC(=O)NCc1ccccn1)S(=O)(=O)c1cc(Br)cnc1N` gave a relative growth of 1.04.

`N[C@]1(C(=O)O)C[C@H](C(=O)O)C1` registered a relative growth of 1.26.

`CC(=O)N/C=C1\C(=O)N(C)C(=O)C(C#N)=C1C`: the relative growth is 1.05.

With `COC(=O)C1[C@H]2C[C@H]3c4[nH]c5ccccc5c4CCN3C[C@@H]2CC[C@@H]1O.Cl` (stereo partly drawn), the relative growth came out at 0.911.
